Measured affinities in a library of Ab-14 light chain variants

Target peptide (SARS-CoV-2 spike, HR2 region): PDVDLGDISGINAS

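Library AAYL50 holds single substitutions and randomly drawn double and triple substitutions in the CDRs. The scFvs were displayed on barcoded MATa yeast, the peptide on MATalpha yeast. After mating in shaken culture at 30 °C for 16 h, diploids were selected and their barcode pairs sequenced. Scores were corrected for input abundance and mapped to Kd with protein pairs of known affinity run in the same pool. Each pool was mated in three replicate cultures.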

Parent scFv Ab-14: VH joined to VL by the linker GGGGSGGGGSGGGGS. Changes lie in the light chain CDRs alone.
VH: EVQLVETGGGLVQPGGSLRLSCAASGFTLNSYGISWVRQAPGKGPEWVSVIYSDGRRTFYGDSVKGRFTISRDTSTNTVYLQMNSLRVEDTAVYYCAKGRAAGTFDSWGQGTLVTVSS
VL: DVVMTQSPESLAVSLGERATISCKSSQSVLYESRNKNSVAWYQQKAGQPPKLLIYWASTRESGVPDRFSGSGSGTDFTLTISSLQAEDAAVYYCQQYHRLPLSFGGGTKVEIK

Changes read parent residue, position, new residue, counted from the first residue of the VL shown. Every variant below is changed at W56 of the VL (sequential numbering). The Kd shown is the geometric mean over detected replicates; a lower Kd is a better binder. An entry "no signal" has no value in the source: the pair was not observed among the diploids in any replicate. This suggests poor binding but is not conclusive. Background: pairings of library AAYL50 with three empty control strains gave a value in 18% of cases (median 15 µM, 5th percentile 970 nM). Values in that range, when seen in few replicates, are hard to tell from nonspecific mating. For each scFv, signals with the empty controls are counted beside the result.

changes	Kd (apparent)	seen in	signal with controls
L30N/W56P/R99E	no signal	0 of 3	3 of 9
Q27P/W56I/S62R	3.3 µM	1 of 3	2 of 9
V29D/S38H/W56T	4.2 nM	3 of 3	4 of 9
A40G/W56I/T59W	830 µM	1 of 3	1 of 9
V39I/W56K	3.4 nM	3 of 3	1 of 9
Q27L/W56Y/E61N	2.5 nM	3 of 3	0 of 9
W56Q/S58L/P101Q	no signal	0 of 3	0 of 9
S28G/W56V/R99N	no signal	0 of 3	1 of 9
S28D/E32Y/W56L	6.5 nM	3 of 3	1 of 9
S25M/W56P	no signal	0 of 3	0 of 9
W56F/Q95W	32 µM	1 of 3	2 of 9
N37L/W56D	7.2 µM	1 of 3	0 of 9
K36C/W56P/S58T	37 µM	1 of 3	1 of 9
S25Q/W56G/A57C	1.3 nM	3 of 3	5 of 9
K24M/W56S	1.5 nM	3 of 3	2 of 9
W56N/Y97N	21 nM	3 of 3	3 of 9
W56C	12 nM	3 of 3	1 of 9
W56H/L102F	38 µM	1 of 3	0 of 9
W56N/R99I	1.6 nM	3 of 3	1 of 9
R34P/W56D/T59Y	810 pM	3 of 3	0 of 9
S38G/W56E/P101A	210 nM	2 of 3	0 of 9
L30R/W56I	no signal	0 of 3	0 of 9
Y31R/W56H/A57I	11 nM	3 of 3	5 of 9
L30V/W56C/R99L	84 nM	3 of 3	0 of 9
S28N/W56C/Q95N	no signal	0 of 3	0 of 9
L30E/W56P/S58E	550 µM	1 of 3	1 of 9
S25W/W56H/L100F	11 nM	3 of 3	0 of 9
Y31K/W56H/L102E	1.7 µM	2 of 3	0 of 9
K24M/Q27D/W56R	3.7 nM	3 of 3	1 of 9
V39Y/W56R/Q95A	230 nM	3 of 3	0 of 9
W56Q/H98M/L100A	2.2 nM	3 of 3	5 of 9
S26D/V29D/W56E	920 pM	3 of 3	0 of 9
W56D	5.5 nM	3 of 3	0 of 9
W56E/Q96T/L102D	1.6 nM	3 of 3	1 of 9
K24D/W56Q/L100K	5.0 µM	3 of 3	3 of 9
V39P/W56H/S103E	no signal	0 of 3	2 of 9
V29R/S33V/W56A	no signal	0 of 3	3 of 9
N35Y/W56L/Q96K	100 µM	1 of 3	1 of 9
S26N/W56I	7.6 µM	1 of 3	4 of 9
K36V/W56K/S58W	11 nM	3 of 3	1 of 9
V29C/W56D/Q96W	1.5 nM	3 of 3	4 of 9
A40F/W56C/L102G	no signal	0 of 3	0 of 9
L30V/W56I/L102T	6.1 µM	3 of 3	3 of 9
Y31N/N35D/W56H	1.1 nM	3 of 3	8 of 9
W56T/H98M/L100S	no signal	0 of 3	3 of 9
W56I/L100A/P101A	210 µM	1 of 3	0 of 9
S25K/W56Q/R60D	no signal	0 of 3	3 of 9
W56Q/Y97P/R99M	no signal	0 of 3	0 of 9

The closing 6 entries, repeated:

changes	Kd (apparent)	seen in	signal with controls
L30V/W56I/L102T	6.1 µM	3 of 3	3 of 9
Y31N/N35D/W56H	1.1 nM	3 of 3	8 of 9
W56T/H98M/L100S	no signal	0 of 3	3 of 9
W56I/L100A/P101A	210 µM	1 of 3	0 of 9
S25K/W56Q/R60D	no signal	0 of 3	3 of 9
W56Q/Y97P/R99M	no signal	0 of 3	0 of 9

For reference, the parent read 4.4 nM as the reference entry and 48 nM as a member of this library.

The measurements come from Engelhart et al. 2022 (doi:10.1038/s41597-022-01779-4) through the FLAb antibody collection.